This is an account of results in the supplement of paper PMC11537057.

Molecules are shown by their SMILES. Structures can show the parent of a compound that is named as a salt. ± gives the standard deviation of the averaged measurements. Most of the highest values are listed elsewhere, so they are rarer here than in the full data.

In the assay the test system is A549 infected with HSV-1. The assay can be described thus: cell number in HSV-1-infected wells relative to infected DMSO wells (H2B-RFP signal); higher = more surviving cells (uninfected or antiviral-protected wells give about 200%; low = toxicity). The following applies: 10 µM; 48 h; MOI: 0.1. The method, then: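 Selleck FDA-approved library (L1300) screened in duplicate at 10 µM on A549 H2B-mRuby cells in 384-well plates, infected with HSV-1 strain 17 YFP-ICP4 at MOI 0.1 one hour before drug addition. Imaged after 2 days at 37°C. Cell growth (H2B-RFP) and infection (ICP4-YFP) are expressed as % of DMSO-treated wells. Hits: growth >90% and infection <20% of DMSO.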
In the case of `CC[C@H](C)[C@H](NC(=O)[C@H](CCC(=O)O)NC(=O)C(CCC(=O)O)NC(=O)[C@H](Cc1ccccc1)NC(=O)C(CC(=O)O)NC(=O)CNC(=O)C(CC(N)=O)NC(=O)CNC(=O)CNC(=O)CNC(=O)CNC(=O)[C@@H]1CCCN1C(=O)[C@H](CCCNC(=N)N)NC(=O)[C@@H]1CCCN1C(=O)[C@@H](N)Cc1ccccc1)C(=O)N1CCC[C@H]1C(=O)N[C@@H](CCC(=O)O)C(=O)N[C@@H](CCC(=O)O)C(=O)N[C@@H](Cc1ccc(O)cc1)C(=O)N[C@@H](CC(C)C)C(=O)O` (stereo partly specified) [Bivalirudin Trifluoroacetate], the “cell number in HSV-1-infected wells” value came out at 114 ± 10%.
